Permeability data for macrocyclic peptides

Collected by the curators of CycPeptMPDB (Li et al. 2023) from Kelly et al. 2021, doi:10.1021/jacs.0c06115.

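Lipid, pH, incubation time, direction and concentration are not recorded in the data file. The list need not hold all peptides of the study. Peptides that the database sets to -10, its floor, are left out.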

PAMPA is the parallel artificial membrane permeability assay, which has no cells and reads passive diffusion. MDCK values are permeabilities across Madin-Darby canine kidney cell monolayers. P is given in units of 10^-6 cm/s (from log10 values with two decimals); larger means faster passage. "–" marks a cell with nothing listed here.

structure (SMILES),PAMPA (10^-6 cm/s),MDCK (10^-6 cm/s)
CC(=O)N1CCC[C@H]1C(=O)N(C)[C@H](CC(C)C)C(=O)N[C@@H]1C(=O)N(C)[C@@H](CC(C)C)C(=O)N[C@@H](CC(C)C)C(=O)N(C)[C@H](CC(C)C)C(=O)N(C)[C@H](C)C(=O)N[C@@H](CC(C)C)C(=O)N2CCC[C@@H]2C(=O)O[C@@H]1C,4.7,4.8
CC(=O)N1CCC[C@@H]1C(=O)N(C)[C@@H](CC(C)C)C(=O)N[C@@H]1C(=O)N[C@@H](CC(C)C)C(=O)N[C@@H](CC(C)C)C(=O)N[C@H](CC(C)C)C(=O)N(C)[C@H](C)C(=O)N[C@H](CC(C)C)C(=O)N2CCC[C@@H]2C(=O)O[C@@H]1C,0.38,–
CC(=O)N1CCC[C@H]1C(=O)N(C)[C@@H](CC(C)C)C(=O)N[C@@H]1C(=O)N[C@H](CC(C)C)C(=O)N[C@H](CC(C)C)C(=O)N(C)[C@H](CC(C)C)C(=O)N(C)[C@@H](C)C(=O)N[C@@H](CC(C)C)C(=O)N2CCC[C@@H]2C(=O)O[C@@H]1C,2.1,–
CC(=O)N1CCC[C@@H]1C(=O)N(C)[C@@H](CC(C)C)C(=O)N[C@@H]1C(=O)N[C@@H](CC(C)C)C(=O)N[C@H](CC(C)C)C(=O)N[C@@H](CC(C)C)C(=O)N[C@@H](C)C(=O)N[C@@H](CC(C)C)C(=O)N2CCC[C@H]2C(=O)O[C@@H]1C,0.079,–
CC(=O)N1CCC[C@@H]1C(=O)N(C)[C@@H](CC(C)C)C(=O)N[C@@H]1C(=O)N[C@@H](CC(C)C)C(=O)N(C)[C@@H](CC(C)C)C(=O)N[C@H](CC(C)C)C(=O)N(C)[C@@H](C)C(=O)N[C@H](CC(C)C)C(=O)N2CCC[C@@H]2C(=O)O[C@@H]1C,5.5,–
CC(=O)N1CCC[C@@H]1C(=O)N(C)[C@H](CC(C)C)C(=O)N[C@@H]1C(=O)N[C@H](CC(C)C)C(=O)N[C@@H](CC(C)C)C(=O)N[C@H](CC(C)C)C(=O)N(C)[C@H](C)C(=O)N[C@H](CC(C)C)C(=O)N2CCC[C@H]2C(=O)O[C@@H]1C,0.43,–
CC(=O)N1CCC[C@H]1C(=O)N(C)[C@H](CC(C)C)C(=O)N[C@@H]1C(=O)N[C@@H](CC(C)C)C(=O)N[C@@H](CC(C)C)C(=O)N(C)[C@H](CC(C)C)C(=O)N[C@@H](C)C(=O)N[C@@H](CC(C)C)C(=O)N2CCC[C@H]2C(=O)O[C@@H]1C,0.78,–
CC(=O)N1CCC[C@H]1C(=O)N(C)[C@@H](CC(C)C)C(=O)N[C@@H]1C(=O)N[C@@H](CC(C)C)C(=O)N[C@@H](CC(C)C)C(=O)N[C@H](CC(C)C)C(=O)N[C@@H](C)C(=O)N[C@H](CC(C)C)C(=O)N2CCC[C@H]2C(=O)O[C@@H]1C,0.036,–
CC(=O)N1CCC[C@@H]1C(=O)N(C)[C@H](CC(C)C)C(=O)N[C@@H]1C(=O)N(C)[C@@H](CC(C)C)C(=O)N(C)[C@@H](CC(C)C)C(=O)N[C@H](CC(C)C)C(=O)N[C@H](C)C(=O)N[C@H](CC(C)C)C(=O)N2CCC[C@@H]2C(=O)O[C@@H]1C,1.5,–
CC(=O)N1CCC[C@H]1C(=O)N(C)[C@H](CC(C)C)C(=O)N[C@@H]1C(=O)N(C)[C@@H](CC(C)C)C(=O)N[C@@H](CC(C)C)C(=O)N(C)[C@@H](CC(C)C)C(=O)N(C)[C@@H](C)C(=O)N[C@H](CC(C)C)C(=O)N2CCC[C@H]2C(=O)O[C@@H]1C,0.26,–
CC(=O)N1CCC[C@@H]1C(=O)N(C)[C@@H](CC(C)C)C(=O)N[C@@H]1C(=O)N(C)[C@@H](CC(C)C)C(=O)N(C)[C@H](CC(C)C)C(=O)N[C@@H](CC(C)C)C(=O)N(C)[C@H](C)C(=O)N[C@@H](CC(C)C)C(=O)N2CCC[C@H]2C(=O)O[C@@H]1C,1.3,–
CC(=O)N1CCC[C@H]1C(=O)N(C)[C@@H](CC(C)C)C(=O)N[C@@H]1C(=O)N(C)[C@H](CC(C)C)C(=O)N(C)[C@@H](CC(C)C)C(=O)N[C@@H](CC(C)C)C(=O)N(C)[C@H](C)C(=O)N[C@@H](CC(C)C)C(=O)N2CCC[C@@H]2C(=O)O[C@@H]1C,0.81,–

The last 2 entries again:

{"smiles": "CC(=O)N1CCC[C@@H]1C(=O)N(C)[C@@H](CC(C)C)C(=O)N[C@@H]1C(=O)N(C)[C@@H](CC(C)C)C(=O)N(C)[C@H](CC(C)C)C(=O)N[C@@H](CC(C)C)C(=O)N(C)[C@H](C)C(=O)N[C@@H](CC(C)C)C(=O)N2CCC[C@H]2C(=O)O[C@@H]1C", "PAMPA (10^-6 cm/s)": "1.3"}
{"smiles": "CC(=O)N1CCC[C@H]1C(=O)N(C)[C@@H](CC(C)C)C(=O)N[C@@H]1C(=O)N(C)[C@H](CC(C)C)C(=O)N(C)[C@@H](CC(C)C)C(=O)N[C@@H](CC(C)C)C(=O)N(C)[C@H](C)C(=O)N[C@@H](CC(C)C)C(=O)N2CCC[C@@H]2C(=O)O[C@@H]1C", "PAMPA (10^-6 cm/s)": "0.81"}